# Antibody variant affinities, Ab-14 light chain, assay 1

Source: Engelhart et al. 2022 (doi:10.1038/s41597-022-01779-4), MIT Lincoln Laboratory and A-Alpha Bio; data file from the FLAb repository.

Target peptide (SARS-CoV-2 spike, HR2 region): PDVDLGDISGINAS

The variants keep the heavy chain, the linker and the frameworks of Ab-14 (scFv order VH, three GGGGS repeats, VL).
VH: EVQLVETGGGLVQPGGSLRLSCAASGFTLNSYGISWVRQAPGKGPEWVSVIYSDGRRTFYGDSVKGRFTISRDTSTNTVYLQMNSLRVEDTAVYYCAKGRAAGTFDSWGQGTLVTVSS
VL: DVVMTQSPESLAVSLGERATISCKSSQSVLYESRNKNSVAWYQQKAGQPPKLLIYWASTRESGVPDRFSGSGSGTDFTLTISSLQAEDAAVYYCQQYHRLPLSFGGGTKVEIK

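Phage display of a naive human antibody library on the peptide gave the parent. Variants in AAYL50 differ from the parent at up to three CDR positions; double and triple changes were sampled at random. The scFvs were displayed on barcoded MATa yeast, the peptide on MATalpha yeast. Binding brings cells together so that they mate, and sequencing counts the barcode pairs among the diploids. The ratio of observed to expected reads was calibrated, replicate by replicate, on BCL2-family standards whose Kd was known from biolayer interferometry. Each pool was mated in three replicate cultures.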

Variants are written as CDR1, CDR2 and CDR3 of the light chain (limits as in the source). Parent: KSSQSVLYESRNKNSVA, WASTRES, QQYHRLPLS. All variants listed here change H98 of the VL, counted from its first residue. The read-out is the apparent dissociation constant on a log10 scale (nM): the lower, the stronger. "nd" means that the variant was in the library but no mating with the target was seen in that replicate; the authors take this as a sign of poor binding, and no number exists. Three control strains display no target. For library AAYL50, 18% of the pairings with them gave a signal, with a median of 4.19 and one signal in twenty below 2.99, so weak values seen in few replicates may be background.

- KSSQSVLTESRNKNSVA | VASTRES | QQYQRLPLS: 2.78, 3.38, 3.54
- KSSQSVLYESRNPNSVA | WASTRES | QQYNRLPLS: 0.91, 0.95, 1.01
- KSWQSVLYISRNKNSVA | WASTRES | QQYWRLPLS: nd, nd, nd
- KSSQSVLYEQRNKISVA | WASTRES | QQYPRLPLS: nd, nd, nd
- KSSQSVLYESRNKNSVA | WASRRES | WQYVRLPLS: nd, 4.18, nd
- KSSQSVLYESRNKNSHA | WASTRES | QIYERLPLS: nd, nd, nd
- KWSQSVLYESRNKNEVA | WASTRES | QQYIRLPLS: 3.15, nd, nd
- KSSQSVLYESRNKNSQA | WASTRES | RQYGRLPLS: nd, nd, nd
- KSSQSVVYESRNLNSVA | WASTRES | QQYPRLPLS: nd, nd, 4.32
- KSSQSVLYESRNKNSVA | WGSTRWS | QQYDRLPLS: 2.19, 1.82, 2.09
- KSSQNILYESRNKNSVA | WASTRES | QQYKRLPLS: 1.31, 1.69, 1.53
- KSSQSVLYESRNKNSVA | WASTRES | QQYYSLPLS: 0.89, 1.22, 1.15
- KSVYSVLYESRNKNSVA | WASTRES | QQYDRLPLS: 1.67, 1.84, 1.73
- VSSQSVLYESRNKNSVA | WASTRES | QQYCRLPLS: 1.40, 1.80, 2.21
- KSSQSVLYESRNKNSVA | WASTRES | QQYCRLPLS: 1.39, 1.31, 1.52
- DSSQSVLYSSRNKNSVA | WASTRES | QQYYRLPLS: 1.61, 1.51, 1.58
- KSSQSVLDYSRNKNSVA | WASTRES | QQYARLPLS: nd, nd, 3.55
- KSVQSVLYESRNKNSVA | WASTRES | QQYMRLELS: 3.83, 3.10, nd
- KSSQSVLFESRNKNSVA | WASTRES | QQYPRLPLS: 1.43, 1.47, 1.55
- KSSQSVLYHSRNKNSVA | WASTRET | QQYIRLPLS: 1.60, 1.92, 2.21
- KSSQSQLYESRNKNSVA | WLSTRES | QQYPRLPLS: nd, nd, nd
- KSSQSVLYESRNKNSVA | WASTRES | QQYKRLPLS: nd, nd, nd
- KDSQSVLYESRNKNSVA | WAQTRES | QQYKRLPLS: 2.25, 2.48, 2.24
- KSSQSVQYESRNKNSVA | WASTRES | QQYARLPLS: 2.12, 2.21, 2.16
- VSSQSVLYESRNKNSVA | WASTRES | YQYPRLPLS: 4.97, nd, nd
- KSSQPVLYESRNKNSVA | WASTREQ | QQYARLPLS: 0.28, 0.56, 0.43
- KSSQSVLYEMRNKNSVA | WASTRES | QTYRRLPLS: 3.13, 2.73, nd
- KSSQSVLYESRNKNQVA | WASTRES | QQRRRLPLS: nd, 4.93, nd
- KSSQSVLYESRNKNSVA | WASTRES | QQYGRLPLS: 1.64, 1.70, 1.72
- KSSQSVLYESRNKNSVF | WASTRES | HQYSRLPLS: 4.42, 3.71, nd
- KSSQSVLYESRNKNSVA | WASTRES | QIYYRLPLS: 2.37, 1.89, 1.77
- KSSFSVLYESRNKNSVA | WASTRES | QQYMRLPLS: 1.70, 1.66, 1.82
- KSSQSVYYESCNKNSVA | WASTRES | QQYNRLPLS: 1.40, 1.25, 1.16
- KVDQSVLYESRNKNSVA | WASTRES | QQYWRLPLS: nd, nd, nd
- KSSQSVLYESRNKNKVA | WATTRES | QQYGRLPLS: 3.28, 2.42, 2.63
- KSSQSVLKESRNKNSVA | WASTRHS | QQYLRLPLS: nd, nd, nd
- VSSQSVLYESRNKNSVA | WASTRVS | QQYFRLPLS: 0.60, 0.81, 0.69

The closing 2 entries, repeated:

| CDR-L1 | CDR-L2 | CDR-L3 | log10 Kd, replicates |
|---|---|---|---|
| KSSQSVLKESRNKNSVA | WASTRHS | QQYLRLPLS | nd, nd, nd |
| VSSQSVLYESRNKNSVA | WASTRVS | QQYFRLPLS | 0.60, 0.81, 0.69 |

For reference, the parent read 0.65 as the reference entry and 1.68 as a member of this library.